# Test results from patent US8580780B2 (dated 2013).
# Sequences of proteins named here, by UniProt entry; tags and fusion partners are left off.
# UniProt P28223, whole entry: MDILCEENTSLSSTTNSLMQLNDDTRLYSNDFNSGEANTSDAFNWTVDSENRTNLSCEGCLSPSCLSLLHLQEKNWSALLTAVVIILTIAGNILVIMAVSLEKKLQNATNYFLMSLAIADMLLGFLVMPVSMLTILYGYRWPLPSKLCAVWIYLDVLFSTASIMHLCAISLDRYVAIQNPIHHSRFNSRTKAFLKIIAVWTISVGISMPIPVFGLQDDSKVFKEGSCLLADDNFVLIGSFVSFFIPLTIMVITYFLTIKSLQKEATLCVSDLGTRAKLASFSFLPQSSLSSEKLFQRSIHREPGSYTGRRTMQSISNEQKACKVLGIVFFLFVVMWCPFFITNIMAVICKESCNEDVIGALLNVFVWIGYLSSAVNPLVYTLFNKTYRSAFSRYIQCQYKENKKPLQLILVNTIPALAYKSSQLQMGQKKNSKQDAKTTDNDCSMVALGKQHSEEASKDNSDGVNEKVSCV
# UniProt P41595, whole entry: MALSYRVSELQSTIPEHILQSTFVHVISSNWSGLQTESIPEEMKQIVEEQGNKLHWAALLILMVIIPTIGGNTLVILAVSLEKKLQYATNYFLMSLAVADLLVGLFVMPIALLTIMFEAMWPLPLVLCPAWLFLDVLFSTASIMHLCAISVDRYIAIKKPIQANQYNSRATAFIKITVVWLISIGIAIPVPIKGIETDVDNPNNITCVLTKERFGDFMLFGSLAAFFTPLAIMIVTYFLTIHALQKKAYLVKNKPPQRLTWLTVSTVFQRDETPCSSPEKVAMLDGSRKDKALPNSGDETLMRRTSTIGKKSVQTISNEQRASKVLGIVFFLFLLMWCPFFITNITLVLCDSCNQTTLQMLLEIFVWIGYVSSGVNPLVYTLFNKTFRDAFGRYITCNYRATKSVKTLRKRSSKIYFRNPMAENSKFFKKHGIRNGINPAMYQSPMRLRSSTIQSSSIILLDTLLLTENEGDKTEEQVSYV
# Legend:
# human 5-HT2A receptor = human 5-HT2A receptor (Homo sapiens, UniProt P28223); settings: normalized AUC at 5-HT2C / normalized AUC at 5-HT2A, relative to 5-HT
# human 5-HT2B receptor = human 5-HT2B receptor (Homo sapiens, UniProt P41595); settings: normalized AUC at 5-HT2C / normalized AUC at 5-HT2B, relative to 5-HT
smiles,measurement,setting,value
"Clc1cccc(N2CCNCC2)c1 [mCPP, meta-chlorophenylpiperazine]",Selectivity Ratio AUC 2C/2A,human 5-HT2A receptor,2.1
same,Selectivity Ratio AUC 2C/2B,human 5-HT2B receptor,2.1
